For one assay, the target named is ARAF (Homo sapiens, UniProt P10398). Put plainly: ARAF kinase activity assay (AlphaLISA p-MEK detection). The following applies: read-out: Kinase IC50 (nM) ARAF; Table A. As for the experimental part:
(§1) Compound preparation: solid samples of each substances in 1dram vials were suspended in DMSO (Fisher Scientific) at a stock concentration of 20 mM. Stocks were kept at −20° C. and protected from light. If solubility of the compound at 20 mM appeared to be an issue, the initial concentration of the DMSO stock was changed to 10 mM or 5 mM.
In vitro enzymatic reactions were used for evaluating compounds intrinsic activity against BRAF, CRAF and ARAF. […]
ARAF kinase reactions were carried out for a total of 2 hours at 30° C. and then stopped by addition of EDTA at a final concentration of 40 mM. Reactions were then detected using the AlphaLISA® SureFire® Ultra™ p-MEK ½ (Ser218/222) (PerkinElmer) kit. […] After completion of the detection reactions, the signals were recorded on a Synergy Neo2 plate reader (Biotek) equipped with AlphaLISA® filters. The effect of each compound dilution on the pMEK signal generated by ARAF reactions was expressed in % inhibition and calculated as follows. […]

By UniProt entry, the sequences of proteins in these tests, tags left out. Residues count along the entry.
UniProt P10398, 310-570 limits assumed: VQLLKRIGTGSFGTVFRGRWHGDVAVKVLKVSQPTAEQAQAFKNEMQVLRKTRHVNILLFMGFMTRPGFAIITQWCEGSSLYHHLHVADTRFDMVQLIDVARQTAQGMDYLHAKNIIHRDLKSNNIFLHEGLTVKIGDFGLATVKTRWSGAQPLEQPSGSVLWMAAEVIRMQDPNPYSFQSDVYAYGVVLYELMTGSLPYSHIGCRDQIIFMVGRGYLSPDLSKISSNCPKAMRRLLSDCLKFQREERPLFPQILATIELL
UniProt P04049, whole entry: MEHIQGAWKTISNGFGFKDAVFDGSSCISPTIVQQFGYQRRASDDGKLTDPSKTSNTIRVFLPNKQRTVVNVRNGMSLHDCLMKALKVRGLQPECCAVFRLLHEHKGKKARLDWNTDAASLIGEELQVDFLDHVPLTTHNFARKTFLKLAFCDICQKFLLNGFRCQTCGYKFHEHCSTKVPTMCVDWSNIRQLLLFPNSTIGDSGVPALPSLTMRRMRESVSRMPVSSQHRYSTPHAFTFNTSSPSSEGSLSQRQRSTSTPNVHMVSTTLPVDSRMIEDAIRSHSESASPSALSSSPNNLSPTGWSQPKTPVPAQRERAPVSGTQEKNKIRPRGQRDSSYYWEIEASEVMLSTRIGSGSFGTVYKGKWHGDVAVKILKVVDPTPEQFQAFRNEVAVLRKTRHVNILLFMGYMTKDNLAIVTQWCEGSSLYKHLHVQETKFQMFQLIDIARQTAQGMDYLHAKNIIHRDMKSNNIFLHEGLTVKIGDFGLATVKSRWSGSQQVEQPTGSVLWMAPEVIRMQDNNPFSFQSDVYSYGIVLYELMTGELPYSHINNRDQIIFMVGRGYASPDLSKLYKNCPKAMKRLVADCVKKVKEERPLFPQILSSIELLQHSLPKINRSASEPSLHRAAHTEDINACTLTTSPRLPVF

Another assay concerns the target CRAF (Homo sapiens, UniProt P04049). Put plainly: CRAF kinase activity assay (ADP-Glo). The following applies: read-out: Kinase IC50 CRAF; Table 3. As for the experimental part: as §1
In vitro enzymatic reactions were used for evaluating compounds intrinsic activity against BRAF, CRAF and ARAF. For BRAF and CRAF, 0.375 nM of purified GST-tagged kinases (cat #B4062-10UG and cat #R1656-10UG respectively from Millipore Sigma) were incubated with 75 nM of kinase-dead MEK1 substrate (cat #40075; BPS Bioscience) in the presence of 10 μM of Ultrapure ATP (cat #V9102; Promega; part V915A) with and without the test compound in a buffer containing 50 mM HEPES pH 7.5, 10 mM MgCl2, 1 mM EDTA, 0.01% Brij-35 and 2 mM DTT. Separate reactions were performed with the MEK1 substrate and ATP as a blank control. ARAF, kinase reactions were rigorously the same with the exception that kinase concentration was raised to 3.75 nM (cat #1768-0000-1; Reaction Biology).
For compound treatment, 5 μL/well of test substance solution are placed in a 384-well proxyplate (Perkin Elmer) and mixed with 2× concentrated kinase reactions. The dilution series is selected so that nine concentrations cover a range from 100 nM to 0.01 nM. […] The final concentration of DMSO in the assay is set at 0.05%.
BRAF and CRAF kinase reactions were carried out for a total of 2 hours at 30° C. and then stopped by ½ dilution in ADP-Glo Reagent (cat #V9102; Promega; part V912C). Reactions were then incubated for 1 h at room temperature before addition of one volume of Kinase Detection Reagent (cat #V9102; Promega; part V917A). Plates were then equilibrated at room temperature for 30 minutes before detection of luminescence on a Synergy Neo2 plate reader (Biotek). The effect of each compound dilution on BRAF and CRAF kinase activity was expressed as % inhibition and calculated as follows. First, the internal 100% inhibition control (average of luminescence in kinase reactions comprising kinase dead MEK1 substrate alone) was subtracted from each data point. The average of DMSO (vehicle) controls (set as 0% inhibition) was established and used to calculate % inhibition:
IC50 values were obtained by plotting the kinase inhibition values and fitting the dose-activity curves using a log(agonist) versus response−variable slope (four parameters) function using either GraphPadPrism (V7.0) or Dotmatics Screening Ultra platform. Standards included in the ARAF kinase assay were Belvarafenib (MedChem Express cat #HY-109080; CAS #1446113-23-0), LXH254 (MedChem Express cat #HY-112089; CAS #1800398-38-2) and BGB283 (cat #HY-18957; CAS #1446090-79-4).
A general note: In ADP-Glo the light output rises with the ADP produced.

For the compound `COc1ccc(S(=O)(=O)Nc2ccc(F)c(Nc3ncnc4cnc(-n5cc(S(=O)(=O)N(C)CCN(C)C)c6ccccc65)nc34)c2F)c(C)c1Cl`, the figures for the IC50 on ARAF and at CRAF were 10 to 20 nM and 10 to 50 nM, respectively.
The like results for `O=S(=O)(Nc1ccc(F)c(Nc2ncnc3cnc(-n4cnc5c(N6CCC(O)(C(F)(F)F)CC6)cccc54)nc23)c1F)c1cccc(Cl)c1Cl` were, in that order, greater than 20 nM and 10 to 50 nM.

The record behind these values is patent US20240239801A1, “PYRIMIDO[5,4,D]PYRIMIDINE COMPOUNDS, COMPOSITIONS COMPRISING THEM AND USES THEREOF” (Université de Montréal, priority 2021, published 2024).
